Among the data in patent US20220389057A1, “ENDOCYTOSIS ROUTING SEQUENCE PEPTIDE FOR CELL DELIVERY SYSTEMS” (SZEGEDI TUDOMÁNYEGYETEM, priority 2019, published 2022) are cytotoxicity values, retold here.

The subject of the series is HeLa cells. In words: Cytotoxicity assay by bioimpedance measurement. Format: cell-based, human. Particulars: 10 μM, 24 hours. The protocol:
Kinetics of cell reaction to 7 and 9 peptide treatment was monitored by impedance measurement at 10 kHz (RTCA-SP instrument, ACEA Biosciences, San Diego, Calif., USA). Impedance measurement is non-invasive, label-five and real time, and linearly correlates with adherence, growth, number and viability of cells. For background measurements 50 μL cell culture medium was added to the wells, then HeLa cells were seeded at a density of 6×10^3 cells/well on non-coated 96-well plates with integrated gold electrodes (E-plate 96, ACEA Biosciences). Cells were treated with peptide solutions at 0.1, 0.5, 1, 5 and 10 μM concentrations at the beginning of the plateau phase of growth and the effects were followed for 24 hours. Triton X-100 detergent (1 mg/mL) was used as a reference compound to induce cell death. Cell index was defined as Rn-Rb at each time point of measurement, where Rn is the cell-electrode impedance of the well when it contains cells and Rb is the background impedance of the well with the medium alone.

Take `NCCCC[C@H](NC(=O)[C@H](Cc1ccc(O)cc1)NC(=O)[C@@H](N)Cc1c[nH]c2ccccc12)C(=O)N[C@@H](Cc1ccc(O)cc1)C(=O)N[C@@H](Cc1c[nH]c2ccccc12)C(N)=O` [WYKYW, Trp-Tyr-Lys-Tyr-Trp]: the cytotoxicity entry is “not toxic”.
